Melting point values, as collected for the OPERA models

Melting points are in °C.

The entry for CCn1c(-c2ccc(C(C)(C)C)cc2)n[nH]c1=S [5-(4-tert-butylphenyl)-4-ethyl-4H-1,2,4-triazole-3-thiol] lists melting point 131 °C.
The entry for CCCCS(N)(=O)=O [1-Butanesulfonamide] lists melting point 44 °C.
The entry for O=C(O)C1=COCCO1 [5,6-Dihydro-[1,4]dioxine-2-carboxylic acid] lists melting point 165 °C.
The entry for COc1cc(C)c(S(=O)(=O)Cl)cc1C [4-methoxy-2,5-dimethylbenzenesulfonyl chloride] lists melting point 99 °C.
The entry for CS(=O)(=O)Nc1ccccc1N [n-(2-aminophenyl)methanesulfonamide] lists melting point 103 °C.
The entry for N#CCc1cccc(C(=O)O)c1 [3-(Cyanomethyl)benzoic acid] lists melting point 167 °C.
The entry for COC(=O)c1cc(S(=O)(=O)Cl)ccc1O [Methyl 5-(chlorosulfonyl)-2-hydroxybenzoate] lists melting point 82 °C.
The entry for CN1C(=O)NC(=O)C12CCCCC2 [1,3-Diazaspiro(4.5)decane-2,4-dione, 1-methyl-] lists melting point 173 °C.
The entry for O=C(NC(Cc1c[nH]c2ccccc12)C(=O)O)c1ccc(F)cc1 (stereo not given) [N-(4-Fluorobenzoyl)tryptophan] lists melting point 96.5 °C.
The entry for O=C([O-])[O-].O=C([O-])[O-].OO.OO.OO.[Na+].[Na+].[Na+].[Na+] lists melting point 50 °C.
The entry for COc1ccc(NC(=O)C(Cl)c2ccccc2)cc1 (stereo not given) [2-Chloro-N-(4-methoxyphenyl)-2-phenylacetamide] lists melting point 154 °C.
The entry for NNC(=O)c1ccc(Cl)c(S(N)(=O)=O)c1 [2-Chloro-5-(hydrazinecarbonyl)benzene-1-sulfonamide] lists melting point 213 °C.
The entry for Cl.O=C(CCN1CCCCC1)c1ccccc1 [3-Piperidinopropiophenone hydrochloride] lists melting point 212 °C.
The entry for CC(C)c1ccc(Cn2nccc2N)cc1 [1-(4-isopropylbenzyl)-1H-pyrazol-5-amine] lists melting point 17 °C.
The entry for CC[N+](C)(CC)CC(C)OCC[N+](C)(C)C.[I-].[I-] (stereo not given) lists melting point 179 °C.
The entry for Cc1cc(S(N)(=O)=O)cc(N)c1C [3-amino-4,5-dimethylbenzenesulfonamide] lists melting point 160 °C.
The entry for Nc1ccc(Cc2nc3ccccc3s2)cc1 [4-(1,3-benzothiazol-2-ylmethyl)aniline] lists melting point 220 °C.
The entry for c1ccc2sc(C3CCCCN3)nc2c1 (stereo not given) [2-piperidin-2-yl-1,3-benzothiazole] lists melting point 201 °C.
The entry for CCNC(=O)c1ccc(N)cc1 [4-Amino-N-ethylbenzamide] lists melting point 74 °C.
The entry for Cn1c(-c2ccco2)n[nH]c1=S [5-(2-furyl)-4-methyl-4H-1,2,4-triazole-3-thiol] lists melting point 180 °C.
The entry for Cc1cc(C)c(C(=O)CCCC(=O)O)c(C)c1 [5-oxo-5-(2,4,6-trimethylphenyl)pentanoic acid] lists melting point 76 °C.
The entry for CN1C(=O)c2ccc(C(=O)O)cc2C1=O [2-methyl-1,3-dioxoisoindoline-5-carboxylic acid] lists melting point 174 °C.
The entry for NS(=O)(=O)c1cc(Br)ccc1Br [2,5-dibromobenzenesulfonamide] lists melting point 200 °C.
The entry for Cc1ccc(-c2csc(N)n2)o1 [4-(5-methylfuran-2-yl)thiazol-2-amine] lists melting point 103 °C.
The entry for Cc1c([N+](=O)[O-])cccc1S(=O)(=O)Cl [2-Methyl-3-nitrobenzene-1-sulfonyl chloride] lists melting point 48 °C.
The entry for CCCCCCCCCCCCOC(=O)CCCCCCCCCCC [Lauryl laurate] lists melting point 29.3 °C.
The entry for CC(=O)C=CC12OC1(C)CCCC2(C)C (stereo not given) [5,6-beta-Ionone epoxide] lists melting point 49 °C.
The entry for O=Cc1ccc(OCc2cccc(F)c2)cc1 [4-[(3-Fluorophenyl)methoxy]benzaldehyde] lists melting point 46 °C.
The entry for CC(Cl)c1nnc(-c2ccccc2)o1 (stereo not given) [2-(1-chloroethyl)-5-phenyl-1,3,4-oxadiazole] lists melting point 17 °C.
The entry for CCCCCCCC/C=C\CCCCCCCC(=O)OCCCCCCCCCC [9-Octadecenoic acid (9Z)-, decyl ester] lists melting point 1 °C.
The entry for COc1ccc(F)c(F)c1O [2,3-Difluoro-6-methoxyphenol] lists melting point 45.5 °C.
The entry for O=C(CN1CCNCC1)N1CCCCC1 [1-(2-oxo-2-piperidin-1-ylethyl)piperazine] lists melting point 84 °C.
The entry for O=C(O)c1ccccc1-c1nc2ccccc2s1 [2-(1,3-benzothiazol-2-yl)benzoic acid] lists melting point 191 °C.
The entry for COc1ccccc1C1CNCCN1 (stereo not given) [2-(2-Methoxyphenyl)piperazine] lists melting point 79.5 °C.
The entry for O=C(CBr)c1ccc2c(c1)CCO2 [2-Bromo-1-(2,3-dihydro-1-benzofuran-5-yl)ethan-1-one] lists melting point 73 °C.
The entry for Cn1nc2ccc(NC(=O)CCl)cc2n1 [2-Chloro-N-(2-methyl-2H-benzotriazol-5-yl)acetamide] lists melting point 176 °C.
The entry for O=C(O)c1cc(N2CCOCC2)ccn1 [4-(Morpholin-4-yl)pyridine-2-carboxylic acid] lists melting point 258 °C.
The entry for Cn1c(=O)[nH][nH]c1=S [4-Methyl-5-sulfanylidene-1,2,4-triazolidin-3-one] lists melting point 217 °C.
The entry for COCCNC(=O)CC#N [2-cyano-N-(2-methoxyethyl)acetamide] lists melting point 79 °C.
The entry for O=C(CCl)NNC(=O)c1cccc(Cl)c1 [3-Chloro-N'-(chloroacetyl)benzohydrazide] lists melting point 156 °C.
The entry for CCOC(=O)CNC(=O)c1cn(CC)c2nc(C)ccc2c1=O lists melting point 198 °C.
The entry for Nc1ncc(Cc2ccccc2F)s1 [5-(2-fluorobenzyl)-1,3-thiazol-2-amine] lists melting point 98 °C.
The entry for O=S(=O)(Cl)C1=Cc2ccccc2CC1 [3,4-dihydronaphthalene-2-sulfonyl Chloride] lists melting point 60 °C.
The entry for c1csc(CNc2cc[nH]n2)c1 [N-(2-Thienylmethyl)-1H-pyrazol-3-amine] lists melting point -14.1 °C.
The entry for O=C(O)c1ccc(SC(F)F)cc1 [4-[(Difluoromethyl)sulfanyl]benzoic acid] lists melting point 155 °C.
The entry for CC(C)c1nnc(N)o1 [5-(Propan-2-yl)-1,3,4-oxadiazol-2-amine] lists melting point 185 °C.
The entry for CC(C)(C)OC(=O)Nc1ccc(F)cc1N [tert-Butyl (2-amino-4-fluorophenyl)carbamate] lists melting point 132 °C.
The entry for O=C(O)C=Cc1ccccc1[N+](=O)[O-] [3-(2-Nitrophenyl)prop-2-enoic acid] lists melting point 244 °C.
The entry for CC1CCc2c(C(=O)O)csc2C1 (stereo not given) lists melting point 179 °C.
The entry for O=C(O)c1ccccc1OCc1ccc(Cl)cc1 [2-((4-Chlorobenzyl)oxy)benzoic acid] lists melting point 86 °C.
The entry for CCN(CC)S(=O)(=O)c1ccc(C(=O)CBr)cc1 [4-(bromoacetyl)-N,N-diethylbenzenesulfonamide] lists melting point 80 °C.
The entry for Nn1cnc2ccc(Br)cc2c1=O [3-amino-6-bromoquinazolin-4(3H)-one] lists melting point 231 °C.
The entry for O=C(O)CNC(=O)C12CC3CC(CC(C3)C1)C2 [N-(Tricyclo[3.3.1.1~3,7~]decane-1-carbonyl)glycine] lists melting point 146 °C.
The entry for CCOC(=O)c1cnc(SC)nc1N [Ethyl 4-amino-2-(methylsulfanyl)pyrimidine-5-carboxylate] lists melting point 115 °C.
The entry for O=C(O)c1cc(-c2ccccc2F)on1 [5-(2-Fluorophenyl)-1,2-oxazole-3-carboxylic acid] lists melting point 183 °C.

Again, the 4 entries with the lowest melting point:

c1csc(CNc2cc[nH]n2)c1 [N-(2-Thienylmethyl)-1H-pyrazol-3-amine] is reported with melting point -14.1 °C.
CCCCCCCC/C=C\CCCCCCCC(=O)OCCCCCCCCCC [9-Octadecenoic acid (9Z)-, decyl ester] is reported with melting point 1 °C.
CC(C)c1ccc(Cn2nccc2N)cc1 [1-(4-isopropylbenzyl)-1H-pyrazol-5-amine] is reported with melting point 17 °C.
CC(Cl)c1nnc(-c2ccccc2)o1 (stereo not given) [2-(1-chloroethyl)-5-phenyl-1,3,4-oxadiazole] is reported with melting point 17 °C.

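OPERA's authors assembled the values from existing databases and did not measure them anew. One number stands for a compound and property, with no spread given. Method, purity and exact conditions of the single measurements are not given. Where a salt, mixture or single isomer is drawn, the source does not say that exactly this form was tested. Some upstream entries may be estimates or bounds without being marked so.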

Values as listed in the OPERA 2.9 repository of K. Mansouri.